Measured values published in article PMC3152441 (Chemistry & biology, 2011).

Protein sequences, listed by entry. Tags and fused reporters are not part of them.
UniProt Q9HC29, whole entry: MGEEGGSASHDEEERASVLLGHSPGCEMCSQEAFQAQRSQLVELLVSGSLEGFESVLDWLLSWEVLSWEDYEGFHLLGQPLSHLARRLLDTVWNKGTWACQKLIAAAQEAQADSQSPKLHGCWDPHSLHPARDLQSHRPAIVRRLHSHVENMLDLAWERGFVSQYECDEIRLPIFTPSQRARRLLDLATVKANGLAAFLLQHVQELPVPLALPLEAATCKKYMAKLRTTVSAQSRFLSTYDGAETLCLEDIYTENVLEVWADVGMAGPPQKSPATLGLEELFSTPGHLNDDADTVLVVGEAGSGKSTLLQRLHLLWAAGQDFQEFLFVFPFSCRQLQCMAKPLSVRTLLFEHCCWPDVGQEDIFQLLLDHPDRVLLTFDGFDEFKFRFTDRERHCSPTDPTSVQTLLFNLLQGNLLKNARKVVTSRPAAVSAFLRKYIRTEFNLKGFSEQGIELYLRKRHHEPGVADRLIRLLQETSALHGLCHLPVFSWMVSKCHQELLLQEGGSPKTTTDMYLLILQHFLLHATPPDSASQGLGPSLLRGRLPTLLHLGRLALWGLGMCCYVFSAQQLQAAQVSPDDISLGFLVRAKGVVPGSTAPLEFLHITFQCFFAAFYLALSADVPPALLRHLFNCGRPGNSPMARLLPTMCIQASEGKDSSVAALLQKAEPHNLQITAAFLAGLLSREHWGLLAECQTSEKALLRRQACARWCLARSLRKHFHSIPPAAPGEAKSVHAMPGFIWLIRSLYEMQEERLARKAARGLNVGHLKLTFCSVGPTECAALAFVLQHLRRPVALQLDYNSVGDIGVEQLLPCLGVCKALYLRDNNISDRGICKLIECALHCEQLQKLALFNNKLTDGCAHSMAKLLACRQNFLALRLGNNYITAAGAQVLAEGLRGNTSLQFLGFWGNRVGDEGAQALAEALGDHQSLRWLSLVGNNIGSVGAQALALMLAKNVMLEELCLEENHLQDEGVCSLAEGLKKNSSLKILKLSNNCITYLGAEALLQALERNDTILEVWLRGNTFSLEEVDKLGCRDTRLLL

How the values were obtained:
NOD2 = NOD2 (Homo sapiens, UniProt Q9HC29); assay: Ni/NTA pull-down from cells expressing His6-tagged NOD2; assay type: cell-based; settings: MCF-7 cells, 5 μM compound, 16hr
NOD1 [1] = molecular target: T1, NOD1 (Homo sapiens, UniProt Q9Y239); assay: Ni/NTA pull-down of purified His6-tagged NOD1; settings: 20 μM compound
T1 sequence (Q9Y239 1-953): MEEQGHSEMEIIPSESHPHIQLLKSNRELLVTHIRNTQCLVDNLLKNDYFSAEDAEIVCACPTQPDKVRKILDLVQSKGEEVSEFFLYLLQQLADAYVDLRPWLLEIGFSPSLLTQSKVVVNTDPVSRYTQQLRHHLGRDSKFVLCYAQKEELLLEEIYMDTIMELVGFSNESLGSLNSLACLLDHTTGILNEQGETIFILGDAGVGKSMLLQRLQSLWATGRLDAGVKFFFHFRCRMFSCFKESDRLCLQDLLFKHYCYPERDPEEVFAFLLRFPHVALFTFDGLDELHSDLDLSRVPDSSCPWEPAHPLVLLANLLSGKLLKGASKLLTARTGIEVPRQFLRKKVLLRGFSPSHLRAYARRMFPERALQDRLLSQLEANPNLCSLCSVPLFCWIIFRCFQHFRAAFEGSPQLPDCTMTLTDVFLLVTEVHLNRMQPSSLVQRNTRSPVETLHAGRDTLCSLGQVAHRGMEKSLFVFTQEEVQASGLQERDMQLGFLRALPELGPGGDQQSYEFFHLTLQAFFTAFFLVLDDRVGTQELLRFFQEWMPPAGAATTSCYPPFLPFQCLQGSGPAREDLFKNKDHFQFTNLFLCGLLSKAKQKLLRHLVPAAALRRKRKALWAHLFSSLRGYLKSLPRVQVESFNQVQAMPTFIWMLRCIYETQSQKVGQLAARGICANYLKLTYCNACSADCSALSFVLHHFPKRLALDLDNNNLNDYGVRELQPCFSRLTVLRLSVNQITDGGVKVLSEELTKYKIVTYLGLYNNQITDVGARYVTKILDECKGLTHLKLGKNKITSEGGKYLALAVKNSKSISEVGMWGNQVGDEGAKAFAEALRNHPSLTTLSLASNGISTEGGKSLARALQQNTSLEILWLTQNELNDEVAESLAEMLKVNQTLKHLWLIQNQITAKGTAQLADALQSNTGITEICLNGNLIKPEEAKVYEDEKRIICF

NOD1 [2] = molecular target: T1, NOD1; assay: 1D 1H-NMR ligand binding to recombinant NOD1; settings: 50 μM compound, 5 μM His6-Flag-NOD1
NOD1 [3] = molecular target: T1, NOD1; assay: ATP binding to recombinant NOD1 protein
NOD1 [4] = molecular target: T1, NOD1; assay: IL-8 secretion by MCF-7 cells over-expressing NOD1; assay type: cell-based; settings: 5 μg/ml γ-tri-DAP, 24 hours, MDP and TNFα as other stimuli
NOD1 [5] = molecular target: T1, NOD1; assay: THP.1 macrophage NF-κB/AP-1-inducible SEAP reporter, γ-tri-DAP; assay type: cell-based; settings: 5 μM compound, 5 μg/ml γ-tri-DAP, 24 h
NOD1 [6] = molecular target: T1, NOD1; assay: Primary monocyte-derived dendritic cells activated with γ-tri-DAP; assay type: cell-based; settings: 15 μM compound
NOD1 [7] = molecular target: T1, NOD1; assay: HEK293T ISRE-driven luciferase reporter, γ-tri-DAP; assay type: cell-based; settings: 5 μM compound, 10 μg/ml γ-tri-DAP, 24 hrs
NOD1 [8] = molecular target: T1, NOD1; assay: Subcellular fractionation of MCF-7 cells stably expressing epitope-tagged NOD1; assay type: cell-based; settings: MCF-7, 5 μM compound, 24hr
[9] = molecular target: T2, NOD1 association with RIP2, Bid, or SGT-1 (Homo sapiens, UniProt Q9Y239); assay: NOD1 association with interacting proteins under over-expressing conditions; assay type: cell-based
T2 sequence (Q9Y239 1-953): T1 sequence (Q9Y239 1-953)

NOD1 [10] = molecular target: T1, NOD1; assay: 697 pre-B leukemia cells NF-κB-luciferase reporter, γ-tri-DAP; assay type: cell-based; settings: 697 cells, 10 μM compound, 20 μg/ml γ-tri-DAP, 24h
NOD1 [11] = molecular target: T1, NOD1; assay: Endogenous NOD1 protein levels in HCT-116 cells; assay type: cell-based; settings: HCT-116, 5 μM compound, 24 hr

Cc1ccc(S(=O)(=O)n2c(N)nc3ccccc32)cc1 [CID-1088438]
efficiency of His6-myc-NOD2 protein pull-down by Ni/NTA (NOD2): no effect | relative amount of His6-NOD1 protein bound to nickel-chelating resin (Ni/NTA) (NOD1 [1]): markedly increased | compound proton (1H) signal intensity in the presence of NOD1 (NOD1 [2]): only suppressed in the presence of NOD1 | ATP binding to recombinant NOD1 protein (NOD1 [3]): did not interfere | IL-8 production induced by NOD1 ligand (NOD1 [4]): most potent of the analogs | NF-κB-inducible SEAP activity induced by γ-tri-DAP (NOD1 [5]): inhibition by CID-1088438 was highly reproducible | cytotoxicity in dendritic cells (NOD1 [6]): without causing cytoxicity | expression of IL-1β, IL-6 and TNFα elicited by γ-tri-DAP (NOD1 [6]; 5 μg/ml γ-tri-DAP, 4hr, quantitative PCR): inhibited | cell surface expression of co-stimulatory molecules CD83, CD86 and HLA-DR elicited by γ-tri-DAP (NOD1 [6]; 5 μg/ml γ-tri-DAP, 24hr, flow cytometry): reduced | NOD1 expression levels in dendritic cells (NOD1 [6]; 4hr, quantitative PCR): No significant changes | ISRE-driven reporter gene activity induced by γ-tri-DAP (NOD1 [7]): suppressed | membrane localization of RIP2 (NOD1 [8]): reduced membrane localization | NOD1 protein in the membrane fraction (NOD1 [8]; independently of γ-tri-DAP induction): induced enrichment | NOD1 association with RIP2, Bid, or SGT-1 [9]: did not interfere | NF-κB activity induced by NOD1 ligand γ-tri-DAP (NOD1 [10]): is inhibited | levels of endogenous NOD1 protein in cells cultured with γ-tri-DAP (NOD1 [11]; 10 μg/ml γ-tri-DAP): but not active compound | levels of endogenous NOD1 protein in unstimulated cells (NOD1 [11]): no clear difference
